{"sequences": {"note": "The chains behind the UniProt entries cited, without tags or fusion partners. Where a name states a change or a piece, a line headed by the entry shows the natural chain unless it says otherwise.", "UniProt P04062": "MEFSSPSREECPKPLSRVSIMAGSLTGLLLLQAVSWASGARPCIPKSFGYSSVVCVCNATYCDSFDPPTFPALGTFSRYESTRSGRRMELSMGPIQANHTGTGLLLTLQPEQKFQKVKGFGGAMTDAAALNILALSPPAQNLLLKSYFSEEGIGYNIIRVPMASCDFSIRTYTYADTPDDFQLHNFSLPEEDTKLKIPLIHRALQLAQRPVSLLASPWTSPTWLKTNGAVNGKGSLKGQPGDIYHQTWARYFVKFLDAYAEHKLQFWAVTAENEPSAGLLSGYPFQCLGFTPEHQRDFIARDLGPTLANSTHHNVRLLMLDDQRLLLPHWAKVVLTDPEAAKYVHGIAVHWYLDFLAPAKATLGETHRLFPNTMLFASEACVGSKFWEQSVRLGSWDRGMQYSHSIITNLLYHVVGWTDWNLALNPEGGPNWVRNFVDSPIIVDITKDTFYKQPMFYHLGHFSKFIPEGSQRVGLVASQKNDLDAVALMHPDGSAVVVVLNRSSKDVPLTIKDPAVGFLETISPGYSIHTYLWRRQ"}, "source": "PubChem BioAssay AID360", "about": "(National Center for Advancing Translational Sciences (NCATS), 2006)", "note": "Only a part is listed here, and it is no random draw. Results filed as inconclusive are left out. The source made the active and inactive calls. No stated cut-off is given here; in the data, active means potency below about 15 µM; inconclusive means mostly about 16 µM to 33 µM; inactive means weaker than that. Potency means the concentration at half of the fitted maximal effect."}
{"biological_target": "Lysosomal acid glucosylceramidase (Homo sapiens) (UniProt P04062)", "assay": "Glucocerebrosidase;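 further: the screen sought inhibitors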", "settings": "purified enzyme, resorufin glucoside fluorescence (screen aimed at inhibitors), 20 min", "text": "NCGC Assay Overview: Beta-glucocerebrosidase catalyzes the hydrolysis of beta-glucocerebroside to glucose and ceramide. The inherited deficiency of beta-glucocerebrosidase results in Gaucher disease, which is characterized by a wide variety of symptoms including hepatosplenomegaly, anemia, thrombocytopenia, bony lesions and bone marrow infiltration with characteristic storage cells, known as Gaucher cells. There are also forms of the disorder affecting the central nervous system. Patients with the same genotypes can manifest with diverse clinical presentations and it is believed that improper folding and trafficking of beta-glucocerbrosidase may contribute to the phenotypes observed. […]\nNCGC Assay Protocol Summary: Both enzyme and substrate were diluted in buffer composed of 50mM citric acid/KH2PO4, 10mM sodium taurocholate and 0.01% tween-20 at pH 5.9. […] This particular assay protocol is for the \"red\" substrate, and it was performed in 1536-well plate format as follows: Red fluorescence substrate assay: 2 uL enzyme 23 nL compound 1 uL substrate (final concentration of 30 uM) Incubate at room temperature (RT) for 20 minutes Read the plate in Viewlux plate reader (Ex=548(7) and Em=600(10))."}
{"smiles": "COc1ccc(Cl)cc1Nc1nc(NCCO)nc(N2CCCC2)n1", "Potency": "active: 871 nM"}
{"smiles": "CCc1nnc(NC(=O)c2ccc(NS(=O)(=O)c3ccccc3)cc2)s1", "Potency": "active: 70 nM"}
